Measured values as given in ChEMBL document CHEMBL2150924, “Inhibition of NaV1.6 sodium channel currents by a novel series of 1,4-disubstituted-triazole derivatives obtained via copper-catalyzed click chemistry” (Bioorg Med Chem Lett, 2012).

By UniProt entry, the sequences of proteins in these tests, tags left out.
UniProt O88420, whole entry: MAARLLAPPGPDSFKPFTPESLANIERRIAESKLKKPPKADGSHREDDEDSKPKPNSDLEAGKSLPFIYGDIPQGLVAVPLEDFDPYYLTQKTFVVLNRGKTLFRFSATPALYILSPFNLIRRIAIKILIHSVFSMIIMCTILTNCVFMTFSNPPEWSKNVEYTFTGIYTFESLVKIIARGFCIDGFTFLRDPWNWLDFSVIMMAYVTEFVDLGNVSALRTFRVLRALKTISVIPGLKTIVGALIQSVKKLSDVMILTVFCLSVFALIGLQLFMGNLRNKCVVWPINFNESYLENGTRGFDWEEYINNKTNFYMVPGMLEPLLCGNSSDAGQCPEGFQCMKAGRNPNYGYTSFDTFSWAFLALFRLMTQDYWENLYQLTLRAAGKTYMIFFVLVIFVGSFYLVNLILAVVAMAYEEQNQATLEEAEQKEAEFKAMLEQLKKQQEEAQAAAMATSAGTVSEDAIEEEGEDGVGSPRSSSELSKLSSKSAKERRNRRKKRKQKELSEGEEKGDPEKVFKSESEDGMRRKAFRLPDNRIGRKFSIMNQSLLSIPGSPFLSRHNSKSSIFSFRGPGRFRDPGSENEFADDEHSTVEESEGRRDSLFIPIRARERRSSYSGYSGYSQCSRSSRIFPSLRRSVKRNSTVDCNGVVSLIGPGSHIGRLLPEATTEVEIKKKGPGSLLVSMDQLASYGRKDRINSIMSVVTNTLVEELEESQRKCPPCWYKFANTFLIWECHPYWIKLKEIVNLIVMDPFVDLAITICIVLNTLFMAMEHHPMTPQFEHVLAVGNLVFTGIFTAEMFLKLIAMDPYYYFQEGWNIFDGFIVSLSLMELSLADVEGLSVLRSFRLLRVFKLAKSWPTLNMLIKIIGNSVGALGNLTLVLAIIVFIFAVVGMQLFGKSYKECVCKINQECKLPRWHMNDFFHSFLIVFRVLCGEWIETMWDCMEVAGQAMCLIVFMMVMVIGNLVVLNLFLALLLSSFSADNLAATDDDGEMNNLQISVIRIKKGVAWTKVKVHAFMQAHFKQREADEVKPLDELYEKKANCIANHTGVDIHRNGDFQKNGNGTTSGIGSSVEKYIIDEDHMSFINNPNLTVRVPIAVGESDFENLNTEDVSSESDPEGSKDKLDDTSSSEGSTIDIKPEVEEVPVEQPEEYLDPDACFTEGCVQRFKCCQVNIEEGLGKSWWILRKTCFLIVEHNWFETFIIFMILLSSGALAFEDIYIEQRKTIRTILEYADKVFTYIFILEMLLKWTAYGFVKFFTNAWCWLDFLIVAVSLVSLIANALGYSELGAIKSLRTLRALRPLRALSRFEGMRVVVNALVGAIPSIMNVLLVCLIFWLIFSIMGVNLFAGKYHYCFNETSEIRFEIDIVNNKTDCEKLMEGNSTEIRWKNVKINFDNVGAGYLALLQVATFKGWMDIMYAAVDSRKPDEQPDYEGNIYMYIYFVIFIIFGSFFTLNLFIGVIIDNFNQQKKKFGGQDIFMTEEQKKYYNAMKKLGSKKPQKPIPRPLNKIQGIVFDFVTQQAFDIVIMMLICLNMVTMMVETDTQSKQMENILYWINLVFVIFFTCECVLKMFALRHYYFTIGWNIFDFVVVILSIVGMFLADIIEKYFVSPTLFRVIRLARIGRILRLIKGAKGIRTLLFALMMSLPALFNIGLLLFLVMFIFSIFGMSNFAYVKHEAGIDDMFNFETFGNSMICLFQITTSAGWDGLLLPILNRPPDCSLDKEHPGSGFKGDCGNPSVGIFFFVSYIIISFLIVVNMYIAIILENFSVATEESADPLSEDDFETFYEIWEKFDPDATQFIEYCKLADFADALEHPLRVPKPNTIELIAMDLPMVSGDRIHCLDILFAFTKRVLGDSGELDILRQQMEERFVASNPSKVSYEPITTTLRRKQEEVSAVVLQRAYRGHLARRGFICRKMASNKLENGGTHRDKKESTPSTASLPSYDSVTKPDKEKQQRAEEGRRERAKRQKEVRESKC

Biological target: Sodium channel protein type 8 subunit alpha (Rattus norvegicus, UniProt O88420)
Test: Inhibition of rat NaV1.6-mediated current expressed in human HEK293 cells by patch clamp assay
Type: cell-based

For c1ccc(-c2c[nH]c(-c3ccccc3)n2)cc1, which IC50 is on record?
Its IC50 is 32.2 µM.
